# According to ChEMBL document CHEMBL4428099, “Identification of indole scaffold-based dual inhibitors of NOD1 and NOD2” (Bioorg Med Chem, 2016):
# Target: T1, Nucleotide-binding oligomerization domain-containing protein 1 (Homo sapiens, UniProt Q9Y239)
# T1 sequence (Q9Y239 whole entry): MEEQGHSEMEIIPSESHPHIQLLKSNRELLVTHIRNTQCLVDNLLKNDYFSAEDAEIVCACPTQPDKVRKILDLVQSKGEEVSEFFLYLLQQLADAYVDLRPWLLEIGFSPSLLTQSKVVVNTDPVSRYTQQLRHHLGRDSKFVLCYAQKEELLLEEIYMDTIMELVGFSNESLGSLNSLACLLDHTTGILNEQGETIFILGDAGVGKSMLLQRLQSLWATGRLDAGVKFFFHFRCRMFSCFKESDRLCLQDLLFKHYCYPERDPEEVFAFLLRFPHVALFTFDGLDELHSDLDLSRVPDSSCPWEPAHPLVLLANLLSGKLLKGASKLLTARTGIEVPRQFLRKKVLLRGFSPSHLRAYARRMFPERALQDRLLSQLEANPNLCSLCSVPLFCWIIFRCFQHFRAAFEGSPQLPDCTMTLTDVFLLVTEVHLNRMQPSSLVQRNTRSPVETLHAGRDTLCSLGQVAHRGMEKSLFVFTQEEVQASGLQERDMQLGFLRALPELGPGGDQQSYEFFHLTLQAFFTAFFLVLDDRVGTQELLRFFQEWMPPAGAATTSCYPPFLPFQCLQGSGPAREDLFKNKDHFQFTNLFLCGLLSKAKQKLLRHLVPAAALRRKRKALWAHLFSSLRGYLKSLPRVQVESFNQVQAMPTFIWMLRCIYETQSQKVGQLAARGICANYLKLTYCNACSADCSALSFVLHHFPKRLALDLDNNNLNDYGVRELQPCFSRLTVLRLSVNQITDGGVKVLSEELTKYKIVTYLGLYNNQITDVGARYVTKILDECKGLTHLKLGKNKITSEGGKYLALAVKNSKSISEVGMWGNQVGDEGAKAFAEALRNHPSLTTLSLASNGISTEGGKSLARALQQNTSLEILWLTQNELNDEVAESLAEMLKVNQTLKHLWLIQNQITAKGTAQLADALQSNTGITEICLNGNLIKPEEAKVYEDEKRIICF
# Test: Inhibition of human NOD1 over-expressed in HEK-Blue cells assessed as inhibition of […] NF-kappaB transcriptional activity preincubated for 1 hr followed by addition of C12-iE-DAP measured after 18 hrs by SEAP reporter gene assay
# Assay type: cell-based
smiles,measurement,value
Cc1ccc(S(=O)(=O)n2c(N)nc3ccccc32)cc1,IC50,560 to 771 nM
